Test results taken from patent US20140256666A1, “ANTIBIOTIC CONJUGATES WITH NONSTEROIDAL ANTI-INFLAMMATORY DRUGS” (Allergan, Inc., priority 2013, published 2014).

Test system: human recombinant carboxylesterases
Assay: In vitro metabolic stability (rate of metabolite formation) in human recombinant carboxylesterases
Assay type: in vitro ADME
Settings: 1 μM test compound, 0.1 mg/mL human recombinant carboxylesterase mixture, pH 6.0, 37° C.
Experimental: All metabolic stability experiments were performed in triplicate in 96-well plate format.
Internal standards were used to compensate for variability from sample processing, chromatographic elution, mass spectrometer response and ion suppression by matrix components.

7-[1-({[({1-[(4-chlorophenyl)carbonyl]-5-methoxy-2-methyl-1H-inden-3-yl}acetyl)oxy]methoxy}carbonyl)octahydro-6H-pyrrolo[3,4-b]pyridin-6-yl]-1-cyclopropyl-6-fluoro-8-methoxy-4-oxo-1,4-dihydroquinoline-3-carboxylic acid [Compound 62]
Rate of formation Metabolite 1 (Indomethacin) (metabolite Indomethacin): 512 ± 48 nM/min/mg
Rate of formation Metabolite 2 (Moxifloxacin) (metabolite Moxifloxacin): 588 ± 56 nM/min/mg
